# Reference: PubChem BioAssay AID1117319 (Southern Research Institute, 2015)
# The list shows a part of the results. Some results for these compounds are left out of this collection, so the calls shown say nothing about other tests. Inconclusive results are not listed. The source made the active and inactive calls.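 Rule for the calls: active = inhibition above a set limit at one or more doses, reproduced on every date tested; inconclusive = results disagree between test dates, or hit never tested in dose response; inactive = the rest.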
# Biological target: Virion infectivity factor (Human immunodeficiency virus type 1 group M subtype B (isolate BH10)) + Virion infectivity factor (Human immunodeficiency virus type 1 group M subtype B (isolate BRU/LAI)) + Virion infectivity factor (Human immunodeficiency virus type 1 group M subtype B (isolate PCV12)) + Virion infectivity factor (Human immunodeficiency virus type 1 group M subtype B (isolate HXB2)) + DNA dC->dU-editing enzyme APOBEC-3G (Homo sapiens) (UniProt P69720+P69721+P69722+P69723+Q9HC16)
# Experiment: inhibitors of Vif binding to APOBEC3G peptide, primary screen, biochemical, TR-FRET, GST-Vif 1-94, biotin-A3G peptide, dose response retest (AID 1117319);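 note: Vif residues 1-94 fused to GST binding biotinylated APOBEC3G peptide 110-148; 0% = full assay without inhibitor and 100% = GST in place of GST-Vif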
# Settings: hits give high values
row,SMILES,inhibition
1,CN(C)C1(CNC(=O)c2ccc(Br)cc2)CCCCC1,inactive: -5.31%
2,COc1cc(C(=O)NCC2(N(C)C)CCCCC2)c([N+](=O)[O-])cc1OC,inactive: -8.7%
3,COc1ccc(Cl)cc1C(=O)NCC1(N(C)C)CCCCC1,inactive: -7.37%
4,O=C(OC1CN2CCC1CC2)C(CO)(c1ccccc1)c1ccccc1 (stereo unspecified),inactive: -5.02%
5,O=C(OCCN1CCCC1)C(O)(c1ccccc1)c1ccccc1,inactive: 3.34%
6,CC(C)Oc1ccc(C(=O)NCC2(N(C)C)CCCCC2)cc1,inactive: -2.76%
7,CN(C)c1cccc(C(=O)NCC2(N(C)C)CCCCC2)c1,inactive: 8.96%
8,CN1[C@@H]2CC[C@H]1CC(OC(=O)C(O)(c1ccccc1)c1ccccc1)C2 (stereo partly specified),inactive: -7.58%
9,COc1cc(SC)ccc1C(=O)NCC1(N(C)C)CCCCC1,inactive: -5.92%
10,CCN(CC)CC(C)C(C)OC(=O)C(O)(c1ccccc1)c1ccccc1 (stereo unspecified),inactive: -8.76%
11,CC(C)N1C(=O)CC2(CCN(CCOC(=O)C(O)(c3ccccc3)c3ccccc3)CC2)C1=O,inactive: -5.87%
12,CN(C)c1ccc(C(=O)NCC2(N(C)C)CCCCC2)cc1,inactive: 3.06%
13,O=C(NCC1(N2CCCCC2)CCCCC1)c1cc(F)c(F)cc1Cl,inactive: -4.83%
14,C=CCN1CCN(CCOC(=O)C(O)(c2ccccc2)c2ccccc2)CC1,inactive: -7.5%
15,COc1ccc(C(=O)NCC2(N(C)C)CCCCC2)cc1,inactive: -4.27%
16,Cc1cc(C(=O)NCC2(N3CCCCC3)CCCCC2)ccc1[N+](=O)[O-],inactive: 0.59%
